{"source": "patent US11096924B2", "about": "“Combination therapies using immuno-dash inhibitors and PGE2 antagonists” (Trustees of Tufts College, priority 2016, dated 2021)", "origin": "cited, not measured here", "conditions": "cited from earlier work"}
{"molecule": "CC(C)[C@H](N)C(=O)N1CCC[C@H]1B(O)O", "note": "[Val-boroPro, Valine-boroProline]", "values": [{"measurement": "adverse events reported on treatment", "setting": "human, in vivo", "value": "immune-related adverse events (irAEs), including pneumonitis"}, {"measurement": "most commonly reported adverse event", "setting": "human, in vivo", "value": "edema/peripheral swelling, hypotension or dehydration/hypovolemia"}, {"measurement": "improvement in grade 3 neutropenia", "setting": "phase I trial, thirteen patients treated concomitantly with immunosuppressive chemotherapy", "value": "five patients showed improvement in grade 3 neutropenia"}, {"measurement": "efficacy endpoints", "setting": "phase II trials in combination with standard cytotoxic chemotherapy", "value": "did not meet the endpoints for efficacy"}]}
